The nature of series [1]: Solid-state stability of crystalline forms on storage (Test Example 1, XRPD). The note with it: open conditions at 25°C/60% RH and sealed conditions at 60°C for two weeks. As to the method: The crystalline form C of the compound of formula I obtained in Example 1-2, the crystalline form C of the compound of formula V obtained in Example 9, the crystalline form A of the compound of formula IX obtained in Example 13, and the crystalline form F of the compound of formula IX obtained in Example 24 were placed under open conditions at 25°C/60% RH and sealed conditions at 60°C for two weeks.

A short description of series [2]: Rat PK Assay, oral administration. The note with it: SD rats, 50mg/kg, dispersed in 0.5% MC/water + 0.1% Tween 80, plasma. As to the method: The purpose of this experiment was to study the pharmacokinetics of the test compounds administered orally to SD rats (SPF grade, Beijing Vital River Laboratory Animal Technology Co., Ltd.). The experimental procedure was as follows: • 1) The above compound crystalline forms were uniformly dispersed in a mixture of 99.9% (0.5% MC (450 cp)/water) + 0.1% Tween 80 at a concentration of 5.0 mg/mL, and then administered orally (10 mL/kg); • 2) Blood samples were collected at 0.083, 0.25, 0.5, 1, 2, 4, 6, 8, and 24 hours, with 0.25 mL collected each time, and EDTA-K2 was added. After collection, the blood samples were placed on ice and centrifuged within 1 hour to separate plasma (centrifugation conditions: 6000 g, 3 minutes, 2-8°C). Plasma samples were stored in a -80°C freezer prior to analysis; • 3) For sample analysis, the concentration of the compound in the plasma samples was analyzed using an LC-MS/MS method. For the plasma assay results, pharmacokinetic parameters were calculated using WinNonlin (Phoenix, version 8.2.0) or other similar software.

Series [3] is described as follows: Hygroscopicity test with RH gradient (Test Example 2). The note with it: gradient of 40-0-95-0-40% RH, 25°C. The text has this: The hygroscopicity characterization and the definition of hygroscopic weight gain involved in the present invention (refer to the Hygroscopicity Test Guideline for Drugs, Part IV, Chinese Pharmacopoeia 2020 Edition) are as follows: • Deliquescent: Absorbs sufficient moisture to form a liquid; • Extremely hygroscopic: Hygroscopic weight gain not less than 15%; • Hygroscopic: Hygroscopic weight gain less than 15% but not less than 2%; • Slightly hygroscopic: Hygroscopic weight gain less than 2% but not less than 0.2%; • Non-hygroscopic or almost non-hygroscopic: Hygroscopic weight gain less than 0.2%.
Test method: A gradient of 40-0-95-0-40% RH was set, with dm/dt 0.002/s. The system was equilibrated for 60~360 min for every 10% RH change. The test temperature was 25°C.

Series [4] can be described thus: Solubility of crystalline forms in media at 37°C (Test Example 3). As to the method:
The crystalline form C of the compound of formula I, the crystalline form A of the compound of formula III, the crystalline form C of the compound of formula V, and the crystalline form A of the compound of formula IX obtained in the above examples were subjected to solubility testing. The test method was as follows: The crystalline form C of the compound of formula I (8 mg), the crystalline form A of the compound of formula III (9 mg), the crystalline form A of the compound of formula IX (11.7 mg), and the crystalline form C of the compound of formula V (10 mg) were weighed into 20 mL glass vials, respectively. 4 mL of medium was added to each. The resulting suspensions or clear solutions were stirred at 37°C at 400 rpm. Samples (0.5 mL each) were taken at 0.5 hours and 2 hours, and centrifuged at 37°C at 14,000 rpm for 5 min. The resulting filtrates were finally subjected to content testing.

Setting [5] is: listed as Crystalline Form A of the compound of Formula II.
Where [6] appears, read: Fasted State Simulated Gastric Fluid, dissolution time 0.5h.
Setting [7] is: Fasted State Simulated Gastric Fluid, dissolution time 2h.
The mark [8] stands for this setting: Fasted State Simulated Intestinal Fluid, dissolution time 0.5h.
The mark [9] stands for this setting: Fasted State Simulated Intestinal Fluid, dissolution time 2h.
[10] abbreviates: Fed State Simulated Intestinal Fluid, dissolution time 0.5h.
The mark [11] stands for this setting: Fed State Simulated Intestinal Fluid, dissolution time 2h.

For the molecule `COc1cnc(Cl)cc1-c1cc(C)ncc1C(=O)Nc1nc2cnc(-c3c(C)nnn3C)c(F)c2s1`, the “stability of the crystalline form (XRPD patterns after storage)” value (from here on “stability of the crystalline form”) in series [1] is “good stability”. In series [2] (setting [5]), the area under the curve AUC(0-t) came to 5.997 µg·h/mL, the maximum concentration (Cmax) was 543 ng/mL and the “Tmax” value was found to be 10.7 h.

As for `COc1cnc(Cl)cc1-c1cc(C)ncc1C(=O)Nc1nc2cnc(-c3c(C)nnn3C)c(F)c2s1` [crystalline form A of the compound of formula III], in series [3], the hygroscopicity result is “moderate hygroscopicity”. In series [3], this molecule showed a water absorbed of 4.8%. Also, the “Solubility (mg/mL)” value was “B (B indicates solubility of 0.1-1 mg/mL)” in series [4] (setting [6]); “B (B indicates solubility of 0.1-1 mg/mL)” in series [4] (setting [7]); “B (B indicates solubility of 0.1-1 mg/mL)” in series [4] (setting [8]); “A (A indicates solubility of 0.01-0.1 mg/mL)” in series [4] (setting [9]); “B (B indicates solubility of 0.1-1 mg/mL)” in series [4] (setting [10]); “B (B indicates solubility of 0.1-1 mg/mL)” in series [4] (setting [11]). Further, the “Solubility (mg/mL)” value in series [4] (Water, dissolution time 0.5h) is listed as “A (A indicates solubility of 0.01-0.1 mg/mL)”; in series [4] (Water, dissolution time 2h), “A (A indicates solubility of 0.01-0.1 mg/mL)”.

For the molecule `COc1cnc(Cl)cc1-c1cc(C)ncc1C(=O)Nc1nc2cnc(-c3c(C)nnn3C)c(F)c2s1` [crystalline form A of the compound of formula IX], the “stability of the crystalline form” value in series [1] is recorded as “good stability”. The same molecule came in with a water absorbed in series [3] of 0.2%. Moreover, the “Solubility (mg/mL)” value in series [4] (setting [6]), in series [4] (setting [7]), in series [4] (setting [8]), in series [4] (setting [9]), in series [4] (setting [10]) and in series [4] (setting [11]) was “B (B indicates solubility of 0.1-1 mg/mL)” in each case. Also, the “Solubility (mg/mL)” value in series [4] (Water, dissolution time 0.5h) is on record as “A (A indicates solubility of 0.01-0.1 mg/mL)”; in series [4] (Water, dissolution time 2h) it was “A (A indicates solubility of 0.01-0.1 mg/mL)”. In addition, the area under the curve AUC(0-t) in series [2] worked out at 743.182 µg·h/mL. Also, in series [2], the highest concentration (Cmax) came out at 97800 ng/mL. Further, the “Tmax” value in series [2] is reported as 0.833 h.

Consider `COc1cnc(Cl)cc1-c1cc(C)ncc1C(=O)Nc1nc2cnc(-c3c(C)nnn3C)c(F)c2s1` [crystalline form C of the compound of formula I], for which the “stability of the crystalline form” value in series [1] is “good stability”. Further, the “crystalline form before and after the test” value in series [3] is “remained unchanged”. Besides, the hygroscopicity entry in series [3] is “non-hygroscopic”. In addition, the “Solubility (mg/mL)” value in series [4] (setting [6]), in series [4] (setting [7]), in series [4] (setting [8]), in series [4] (setting [9]), in series [4] (setting [10]) and in series [4] (setting [11]) was “A (A indicates solubility of 0.01-0.1 mg/mL)” throughout. The “Solubility (mg/mL)” value is given as “A (A indicates solubility of 0.01-0.1 mg/mL)” in series [4] (Water, dissolution time 0.5h) and “A (A indicates solubility of 0.01-0.1 mg/mL)” in series [4] (Water, dissolution time 2h).

Turning to `COc1cnc(Cl)cc1-c1cc(C)ncc1C(=O)Nc1nc2cnc(-c3c(C)nnn3C)c(F)c2s1` [crystalline form C of the compound of formula V], the “stability of the crystalline form” value in series [1] is “good stability”. Moreover, the water absorbed in series [3] was found to be 1.7%. Further, the “Solubility (mg/mL)” value in series [4] (setting [6]), in series [4] (setting [7]), in series [4] (setting [8]), in series [4] (setting [9]), in series [4] (setting [10]) and in series [4] (setting [11]) was “B (B indicates solubility of 0.1-1 mg/mL)” in each case. For the same molecule, the “Solubility (mg/mL)” value was “A (A indicates solubility of 0.01-0.1 mg/mL)” in series [4] (Water, dissolution time 0.5h) and “A (A indicates solubility of 0.01-0.1 mg/mL)” in series [4] (Water, dissolution time 2h).

The term AUC(0-t) denotes exposure summed from dosing to a finite time, without extrapolation to infinity. The term Cmax denotes the highest concentration seen after dosing. Usually Tmax stands for the time at which the peak concentration occurs.
